Earlier results on 1 molecule are cited in patent US20200400567A1, “FUSION POLYPEPTIDE” (PEKING UNIVERSITY, priority 2017, published 2020).

This data set addresses T1, human acetylcholine receptor M3R subtype (Homo sapiens, UniProt P20309).
T1 construct: pDisplay N-terminal leader and vector-derived residues (N); expressed in transfected cells; host or cells: HEK293T
To be noted: literature (Jakubik 1997); read-out: Kd of WT-M3R; cited from earlier work.

B1: WT-M3R: natural M3 type acetylcholine receptor without cpEGFP insertion (protein)
chain: MTLHNNSTTSPLFPNISSSWIHSPSDAGLPPGTVTHFGSYNVSRAAGNFSSPDGTTDDPLGGHTVWQVVFIAFLTGILALVTIIGNILVIVSFKVNKQLKTVNNYFLLSLACADLIIGVISMNLFTTYIIMNRWALGNLACDLWLAIDYVASNASVMNLLVISFDRYFSITRPLTYRAKRTTKRAGVMIGLAWVISFVLWAPAILFWQYFVGKRTVPPGECFIQFLSEPTITFGTAIAAFYMPVTIMTILYWRIYKETEKRTKELAGLQASGTEAETENFVHPTGSSRSCSSYELQQQSMKRSNRRKYGRCHFWFTTKSWKPSSEQMDQDHSSSDSWNNNDAAASLENSASSDEEDIGSETRAIYSIVLKLPGHSTILNSTKLPSSDNLQVPEEELGMVDLERKADKLQAQKSVDDGGSFPKSFSKLPIQLESAVDTAKTSDVNSSVGKSTATLPLSFKEATLAKRFALKTRSQITKRKRMSLVKEKKAAQTLSAILLAFIITWTPYNIMVLVNTFCDSCIPKTFWNLGYWLCYINSTVNPVCYALCNKTFRTTFKMLLLCQCDKKKRRKQQYQQRQSVIFHKRAPEQAL
The Kd is the constant that tells how readily two partners part at equilibrium. With B1, the Kd was 0.5 to 2 µM.
